In the assay the target is REGγ (UniProt P61289). The experiment in a line: co-immunoprecipitation, western blot. Particulars: reference: wild type; sites S226,S227,S228,S230. For orientation: In western blotting, separated proteins are transferred to a membrane and probed.

“NIP30 (from UniProt Q9GZU8) S226–230A (4A)”: the “binding against the reference” value was “lost”.

The record behind these values is PMC7413384.
